The source of these data is patent US5773423A (priority 1994, dated 1998).

Read-outs that look alike come from different tables or passages of the source. A value given as a limit tells only on which side of the number the result lay.

In experiment [1] the target is T1, rat A3 receptor (Rattus norvegicus, UniProt P28647).
T1 sequence (P28647 1-320): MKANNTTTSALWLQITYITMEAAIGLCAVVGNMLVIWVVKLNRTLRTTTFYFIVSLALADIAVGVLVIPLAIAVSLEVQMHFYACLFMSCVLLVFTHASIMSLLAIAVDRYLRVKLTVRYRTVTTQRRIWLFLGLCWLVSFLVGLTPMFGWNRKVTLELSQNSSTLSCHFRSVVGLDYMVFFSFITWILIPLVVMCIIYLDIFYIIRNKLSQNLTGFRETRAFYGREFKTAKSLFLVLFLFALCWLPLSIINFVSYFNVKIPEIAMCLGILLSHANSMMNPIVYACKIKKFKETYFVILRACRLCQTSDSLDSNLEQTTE
The following applies: CHO cells.

For experiment [2], the target named is T1, rat A3 receptor. As to the kind of experiment: biochemical. The experiment is classed as binding. Conditions: for inhibition at 100 µM: read-out: A3 percent displacement; for IC50: read-out: IC50 at A3 receptors.
Setting [3] is: CHO cells stably transfected with rat A3 cDNA, [125I]APNEA or [125I]AB-MECA, read-out: A3 affinity Ki.

Turning to `CCCCn1c(=O)c2c(ncn2[C@@H]2O[C@H](CO)[C@@H](O)[C@H]2O)n(CCCC)c1=O` [Compound 119, 1,3-di-n-butylxanthine-7-β-D-ribofuranoside], the “agonist effect in inhibition of adenylate cyclase via A3 receptors (in words)” value (shortened to “agonist effect in inhibition”) on rat A3 receptor [1] (listed as 1,3-Dibutylxanthine-7-riboside) is given as “partial agonist”. In addition, the “agonist effect in inhibition” value on rat A3 receptor [1] (listed as 1,3-dibutyl-xanthine-riboside) is “shallow dose response curve in inhibition of adenylate cyclase”. For the same molecule, on rat A3 receptor [2] (Table 4, ratio of Ki), the A1/A3 is 0.69 and the A2/A3 was 3.2.
Consider `CNC(=O)[C@H]1O[C@@H](n2cnc3c(NCc4cccc(I)c4)nc(Cl)nc32)[C@H](O)[C@@H]1O` [Example 44, 2-chloro-N^6-(3-iodobenzyl)-9-[5-(methylamido)-β-D-ribofuranosyl]-adenine], for which, on rat A3 receptor [1], the “agonist effect in inhibition” value is “full agonist”. The “A3 affinity greater than IB-MECA” value on rat A3 receptor [2] is 5 fold.
As usually defined, the Ki is the dissociation constant of the complex between target and ligand, obtained from inhibition or displacement. Take `CCNC(=O)[C@H]1O[C@@H](n2cnc3c(NCc4ccccc4)ncnc32)[C@H](O)[C@@H]1O` [Compound 28, N^6-benzyladenosine-5'-N-ethyluronamide]: the “agonist effect in inhibition” value at rat A3 receptor [1] is “full agonists”. At rat A3 receptor [2], the “fold more potent than N6-benzyladenosine at A3 receptors” value is 18 fold, the “selectivity for A3 over A1 receptors” value is given as 13 fold and the “selectivity for A3 over A2 (A2a) receptors” value came out at 14 fold. Besides, the Ki on rat A3 receptor [2] (setting [3]) was 0.0068 ± 0.0025 µM.
As for `Nc1nccc2c1ncn2[C@@H]1O[C@H](CO)[C@@H](O)[C@H]1O` [Compound 32, 3-deazaadenosine], the Ki came to 61.7 µM at rat A3 receptor [2] (setting [3]) and 62 µM at rat A3 receptor [2] (read-out: Ki at A3 receptors).
For the molecule `Cc1cn([C@H]2C[C@H](O)[C@@H](CO)O2)c(=O)[nH]c1=O` [Compound 83, thymidine, reference compound], the inhibition at 100 µM on rat A3 receptor [2] turned out to be 21.3 ± 4.9%.
As usually defined, the IC50 is the point on the concentration scale where inhibition reaches its midpoint. With `Nc1ncnc2c1ncn2[C@@H]1O[C@H](COP(=O)(O)O)[C@@H](O)[C@H]1O` [Compound 78, adenosine-5'-monophosphate, reference compound], on rat A3 receptor [2], the inhibition at 100 µM was found to be 17.2 ± 6.3% and the IC50 is above 100 µM.
Take `CCCCn1c(=O)c2c(ncn2[C@@H]2O[C@H](C(N)=O)[C@@H](O)[C@H]2O)n(CCCC)c1=O`: the “A3 affinity decrease vs 1,3-di-n-butylxanthine-7-β-D-ribofuranoside” value on rat A3 receptor [2] is given as 2.5 fold.
As to `CCCCCC[C@H]([C@H](C)O)n1cnc2c(N)ncnc21` (relative stereo) [Compound 96, erythro-9-(2-hydroxy-3-nonyl)adenine], the inhibition at 100 µM at rat A3 receptor [2] (at 100 μM) was 57.5 ± 14.3%. For the same molecule, the IC50 at rat A3 receptor [2] is below 100 µM.
With `O=c1ccn([C@@H]2O[C@H](CO)[C@@H](O)[C@H]2O)c(=O)[nH]1` [Compound 82, uridine, reference compound], the inhibition at 100 µM on rat A3 receptor [2] came out at 18.9 ± 2.8%.
